Earlier results as cited in US8716182B2, “Liquid aqueous crop protection formulations” (BASF SE, priority 2008, dated 2014).

Conditions: miscible means fully miscible with water

hexylene glycol
solubility in water at 20° C.: (500 g/l)
